This assay relates to whole blood samples. Description: 18S DNA duplex real time PCR assay, increase of DNA in plasma of stored blood, example 5. As to conditions: DMAA added to whole blood; within 3 days of storage. Format: cell-based, human.

Molecules are shown by their SMILES.

Consider `CC(=O)N(C)C` [DMAA, N,N-dimethylacetamide], for which the “increase of cell-free DNA” value is recorded as “Only a minor increase of cell-free DNA”.

The record behind these values is US20160281133A1, “STABILIZATION AND ISOLATION OF EXTRACELLULAR NUCLEIC ACIDS” (QIAGEN GMBH, priority 2013, published 2016).
